From ChEMBL document CHEMBL3301361, “Experimental in vitro DMPK and physicochemical data on a set of publicly disclosed compounds”
≈ marks a conversion by molar mass, not a printed value.

Tests used:
in vitro [1] = conditions: human, plasma, PPB
in vitro [2] = conditions: SD, HW or BN, rat, plasma
in vitro [3] = conditions: human, hepatocytes
in vitro [4] = conditions: hepatocytes
in vitro [5] = conditions: mouse, plasma
in vitro [6] = conditions: Beagle, dog, plasma
in vitro [7] = conditions: Dunkin Hartley, guinea pig, plasma
physchem [8] = conditions: pH 7.4 buffer
physchem [9] = assay: physchem

Work on `CC(C)c1ccc(NC(=O)Cn2cnc3c2c(=O)n(C)c(=O)n3C)cc1` yielded a fraction unbound at 5 h (in vitro [1]) of 0.126 and a fraction unbound at 5 h (in vitro [2]) of 0.124.

With `CCC(=O)NC(c1cccs1)c1cc(Cl)c2cccnc2c1O` (stereo not drawn) the hepatocyte CLint (in vitro [3]) was greater than 150 µL/min/1e6 cells and the hepatocyte CLint (in vitro [4]) was greater than 150 µL/min/1e6 cells.

For `C[C@H]1CN(Cc2cc(Cl)ccc2OCC(=O)O)CCN1S(=O)(=O)c1ccccc1`, the hepatocyte CLint (in vitro [3]) was less than 3 µL/min/1e6 cells and the hepatocyte CLint (in vitro [4]) was less than 3 µL/min/1e6 cells.

`C[C@@H]1CN(C(=O)N[C@H](Cc2ccc(F)cc2)C(=O)N2CCC(C(=O)NC(C)(C)C)(C3CCCCC3)CC2)C[C@H](C)N1` showed a fraction unbound at 5 h (in vitro [1]) of 0.0768 and a fraction unbound at 5 h (in vitro [5]) of 0.0752.

For `CCS(=O)(=O)c1ccc(-c2cc(C(F)(F)F)ccc2OCC(=O)O)c(Cl)c1`, the fraction unbound at 5 h (in vitro [1]) was 0.0234 and the fraction unbound at 5 h (in vitro [6]) was 0.0224.

`O=c1[nH]c2c(O)ccc([C@@H](O)CNCCSCCCNCCc3ccccc3)c2s1` showed a fraction unbound at 5 h (in vitro [1]) of 0.471, a fraction unbound at 5 h (in vitro [2]) of 0.443 and a fraction unbound at 5 h (in vitro [7]) of 0.471.

With `CN(C)CCN1CCN(c2cc(C(=O)NC[C@H]3CC[C@H](CNC(=O)OC(C)(C)C)CC3)c3ccccc3n2)CC1` the fraction unbound at 5 h (in vitro [1]) was 0.0606 and the fraction unbound at 5 h (in vitro [2]) was 0.0568.

`CCS(=O)(=O)Nc1cccc2c1c(Oc1ccc(Cl)cc1)c(C)n2CC(=O)O` gave a hepatocyte CLint (in vitro [3]) of less than 3 µL/min/1e6 cells and a hepatocyte CLint (in vitro [4]) of less than 3 µL/min/1e6 cells.

`COc1cc2c(cc1-c1c(C)noc1C)ncc1[nH]c(=O)n([C@H](C)c3ccccn3)c12` gave a hepatocyte CLint (in vitro [3]) of 3.24 µL/min/1e6 cells and a hepatocyte CLint (in vitro [4]) of 3.39 µL/min/1e6 cells.

In the case of `CCN(C(=O)c1ccc(-c2ccc(Cl)cc2)o1)c1ccc(N2CCNCC2)cc1`, the fraction unbound at 5 h (in vitro [1]) is reported as 0.0418, the fraction unbound at 5 h (in vitro [2]) is reported as 0.0428 and the fraction unbound at 5 h (in vitro [5]) is reported as 0.0391.

For `C[C@@H](CC(=O)OC(C)(C)C)NC(=O)C1=NOC(C(O)(C(F)(F)F)C(F)(F)F)C1` (stereo partly drawn), the fraction unbound at 5 h (in vitro [1]) was 0.16 and the fraction unbound at 5 h (in vitro [2]) was 0.16.

Molecule `C[C@@H](CC(=O)OC(C)(C)C)NC(=O)C1=NO[C@@H](C(O)(C(F)(F)F)C(F)(F)F)C1` has a fraction unbound at 5 h (in vitro [1]) of 0.179 and a fraction unbound at 5 h (in vitro [2]) of 0.19.

`CC(CC(=O)OC(C)(C)C)NC(=O)C1=NOC(C(O)(C(F)(F)F)C(F)(F)F)C1` (stereo not drawn) gave a fraction unbound at 5 h (in vitro [1]) of 0.194 and a fraction unbound at 5 h (in vitro [5]) of 0.19.

With `Cc1c(OC2CCN(CC3CCN([C@@H](Cc4ccc(F)cc4)C(=O)O)CC3)CC2)ccc(C#N)c1Cl` the hepatocyte CLint (in vitro [3]) was less than 3 µL/min/1e6 cells and the hepatocyte CLint (in vitro [4]) was less than 3 µL/min/1e6 cells.

With `CC(C)(C)NC(=O)NCCN1CCN(CC(=O)NC23CC4CC(CC(C4)C2)C3)CC1` the fraction unbound at 5 h (in vitro [1]) was 0.309 and the fraction unbound at 5 h (in vitro [2]) was 0.309.

With `CC(C)(C)CS(=O)(=O)NCCN1CCN(CC(=O)NC23CC4CC(CC(C4)C2)C3)CC1` the fraction unbound at 5 h (in vitro [1]) was 0.139 and the fraction unbound at 5 h (in vitro [2]) was 0.129.

`CC(C)c1nnc2ccc(-c3ocnc3-c3cc(F)ccc3F)cn12` gave a solubility thermodynamic (physchem [8]) of 186 µM (≈ 63.4 µg/mL) and a fraction unbound at 5 h (in vitro [1]) of 0.186.

`c1ccc2nc(COc3ccc(-c4n[nH]cc4-c4ccncc4)cc3)ccc2c1` showed a fraction unbound at 5 h (in vitro [1]) of 0.002 and a fraction unbound at 5 h (in vitro [6]) of 0.002.

In the case of `CCCCNC(=O)c1ccc(Oc2ccc(CC(=O)O)cc2OC)c(NS(=O)(=O)c2ccc(Cl)cc2Cl)c1`, the hepatocyte CLint (in vitro [3]) is reported as less than 3 µL/min/1e6 cells and the hepatocyte CLint (in vitro [4]) is reported as 3 µL/min/1e6 cells.

For `CN1CCN(C2=Nc3cc(Cl)ccc3Nc3ccccc32)CC1` [CLOZAPINE], the pKa (physchem [9]) was 7.64.

For `CCOc1ncc(C)c2c1[C@H](c1ccc(C#N)cc1OC)C(C(N)=O)=C(C)N2` [FINERENONE], the hepatocyte CLint (in vitro [3]) was 4.68 µL/min/1e6 cells and the pKa (physchem [9]) was 4.68.

Work on `Cc1ncc([N+](=O)[O-])n1CCO` [METRONIDAZOLE] yielded a hepatocyte CLint (in vitro [3]) of less than 3 µL/min/1e6 cells and a hepatocyte CLint (in vitro [4]) of less than 3 µL/min/1e6 cells.

Work on `O=c1[nH]c2c(O)ccc(CCNCCS(=O)(=O)CCCOCCc3ccccc3)c2s1` [SIBENADET] yielded a hepatocyte CLint (in vitro [3]) of 42.5 µL/min/1e6 cells.

Molecule `CC(C(=O)O)c1ccc(C(=O)c2cccs2)cc1` (stereo not drawn) [SUPROFEN] has a hepatocyte CLint (in vitro [3]) of 9.77 µL/min/1e6 cells.

With `Cc1ccc(C(=O)c2ccc(CC(=O)O)n2C)cc1` [TOLMETIN] the hepatocyte CLint (in vitro [3]) was 9.12 µL/min/1e6 cells.
